# Measured affinities in a library of Ab-14 light chain variants

Antigen: PDVDLGDISGINAS, a 14-residue peptide of the SARS-CoV-2 spike HR2 region.

Parent scFv Ab-14: VH joined to VL by a (GGGGS)3 linker. Changes lie in the light chain CDRs alone.
VH: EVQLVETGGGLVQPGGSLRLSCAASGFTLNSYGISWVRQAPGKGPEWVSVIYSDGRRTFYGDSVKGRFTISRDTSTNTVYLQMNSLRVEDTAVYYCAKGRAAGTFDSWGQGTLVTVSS
VL: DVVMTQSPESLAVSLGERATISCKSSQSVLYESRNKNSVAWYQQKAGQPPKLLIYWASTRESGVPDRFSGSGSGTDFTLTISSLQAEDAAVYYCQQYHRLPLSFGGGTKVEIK

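The variants were designed computationally from a first round of random CDR variants and then made and measured. Group labels follow the data file (Ctrl: baseline library sampled from a position-specific scoring matrix, with some repeated check sequences; En: ensemble of fine-tuned language models; GP: Gaussian process model; HC: hill climbing; Gen: genetic algorithm; Gibbs: Gibbs sampling; a sequence that several methods proposed may carry one label only). Affinity was read by AlphaSeq, a pooled yeast mating assay with surface-displayed partners. Binding brings cells together so that they mate, and sequencing counts the barcode pairs among the diploids. Read counts were normalised to the haploid input and turned into Kd by a linear fit to BCL2-family pairs of known affinity, for each replicate. Each pool was mated in six replicate cultures.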

The parent's light chain CDRs are KSSQSVLYESRNKNSVA, WASTRES, QQYHRLPLS; each variant's own CDRs replace them letter for letter.
Variants here have more than six changes.
Kd is apparent (estimated from mating counts) and averaged on the log scale over replicates with a signal. Smaller is tighter.
"nd" means that the variant was in the library but no mating with the target was seen in any replicate; the authors take this as a sign of poor binding, and no number exists.
Order: sorted from the lowest average up, undetected variants last.
As a blank, each scFv also met three strains without target: over all light chain designs, 4% of these pairings were detected, typically at 430 nM and seldom below 38 nM.
Of ten entries with the parent sequence, four were seen in most replicates (averages 2.2 nM to 240 nM), three in one and three in none, so single entries are noisy.
In the paper, a design with two or fewer of six values counts as a poor binder.
A sequence measured in both rounds can read differently, since the two assays cover different ranges.

The variant HLADTVMQGSYYRNSVA / QESTRAD / QQYHRLPLS [En_HC] showed 600 pM (6 of 6 replicates). For KVFPSELGESRNKMSVA / QASTRES / QQYHRLPLS [GP_Gibbs], the assay gave 770 pM (6 of 6 replicates). With KIGHGLTTESRNRNSVA / QTETRVS / QHYHRLPLS [En_HC] the result was 870 pM (6 of 6 replicates). With KLSMMVEMMQRNPNSVA / SASTRLS / QQYHRLPLS [GP_Gibbs] the result was 910 pM (6 of 6 replicates). For KVSEEVLMGDRNKNSVA / KASTRES / QQYHRLPLS [GP_Gibbs], the assay gave 970 pM (6 of 6 replicates). The variant KLTMITGLEKVQKNNVA / EMETREQ / QQYNRLPLS [En_Gen] gave 1.0 nM (6 of 6 replicates). The variant KYSFSVLELSRNSNAVA / NASTREE / QDYHRLPLS [GP_Gibbs] showed 1.2 nM (6 of 6 replicates).

For TLVDWIQGGTWAKKNVA / DESTRVN / QQYYRLPLS [En_Gibbs], the assay gave 1.2 nM (6 of 6 replicates). The variant KIGMTLNTLMHKQNNVA / DLVTREN / QQYHRLPLS [En_Gen] showed 1.9 nM (6 of 6 replicates). The variant KLGQSVAMTSRMKNNVA / DLNTRER / QQYHRLPLS [En_HC] showed 2.1 nM (6 of 6 replicates). For TMNVELIYGVPMMNNVA / AGSQKLA / QQYYRLPLS [En_Gibbs], the assay gave 2.1 nM (6 of 6 replicates). For KLTMITGTEKVRGNNVA / EMETRER / QQYNRLPLA [En_Gen], the assay gave 2.4 nM (6 of 6 replicates). The variant KQQSSVMMGSRNKNSVA / SASKREE / QQYHRLPLS [GP_Gibbs] showed 2.6 nM (6 of 6 replicates). The variant TISQMTSQFSQTINNVA / EVSTRCK / QQYDRLPLA [En_Gen] showed 2.7 nM (6 of 6 replicates).

The variant KLMYSKEYEQRNKNSVA / EASVRES / QQYHRLPLS [GP_Gibbs] gave 3.0 nM (6 of 6 replicates). The variant SMFEKEYAELQPENNIA / DTTARMV / QQYFRLPLL [En_Gibbs] showed 3.2 nM (6 of 6 replicates). For RLTEHMYMRAYANAAVA / DASTRND / QQYHRLPLE [En_Gibbs], the assay gave 3.5 nM (6 of 6 replicates). The variant RIDDYENMLGKNKESIA / EAAVTLT / QQYARLPLS [En_Gibbs] showed 3.7 nM (6 of 6 replicates). The variant KMQQSGLMESRNVNSVA / HASLRLE / QQYHRLPLS [GP_Gibbs] showed 4.0 nM (6 of 6 replicates). With MVTQMAMSGMTNKRSVA / NAETREA / QQYHRLPLI [En_Gen] the result was 4.1 nM (6 of 6 replicates). With MLTRFNLQNQGVSNNIA / DTNQVQE / QQYFRLPFA [En_Gibbs] the result was 4.5 nM (6 of 6 replicates).

With ALQDVTRMESNKKNSIA / DMSNRES / QQYHRLPLS [En_HC] the result was 5.1 nM (6 of 6 replicates). The variant KLQNFSQEPNGMWNNIA / DMTMKHT / QQYNRLPLV [En_Gibbs] showed 5.5 nM (6 of 6 replicates). The variant KIELDLTRYNAGHANIA / HETMKAQ / QQYSRLPLI [En_Gibbs] showed 6.5 nM (6 of 6 replicates). For SLMQVGGYESNAHNSIA / DLRTRES / QQYHRLPLS [En_HC], the assay gave 6.8 nM (3 of 6 replicates). For KQSGQQLYSSRNKNQVA / DASTRES / QQYHRLPLS [GP_Gibbs], the assay gave 8.1 nM (6 of 6 replicates). For TISTSMRYESSLKNAIA / NAQTREP / QQYHRLPIS [En_HC], the assay gave 8.7 nM (6 of 6 replicates). The variant TISQITSLFSQTINNVA / EVSTREQ / QQYDRLPLA [En_Gen] showed 9.0 nM (5 of 6 replicates).

With KLGSATRFESSNKASIA / DNSTRES / QQYHRLPLS [En_HC] the result was 13 nM (6 of 6 replicates). The variant KISQMQRVGSTHRNSIA / EEATRAK / QQYHRLPLQ [En_Gen] gave 18 nM (6 of 6 replicates). With KWSCSVMLESRNWNAVA / EASTRES / QDYHRLPLS [GP_Gibbs] the result was 18 nM (4 of 6 replicates). With MISQVMNTLTHEGNNVA / DLAEREK / QQYFRLPLS [En_Gen] the result was 27 nM (5 of 6 replicates). The variant IVSQLMLWGLHAKNSIA / EAQTRVN / QQYDRLPLI [En_Gen] showed 31 nM (1 of 6 replicates). The variant KASQSEPYEDRNKNSVA / NASYRCS / QQYHRLPLH [GP_Gibbs] showed 35 nM (6 of 6 replicates). The variant KLSFMSSYLSVNKNSVA / EMTTREN / QQYDRLPLS [En_HC] gave 39 nM (6 of 6 replicates).

For MLSDHVKMGSRNTNSVA / DNSTRGS / QQYDRLPLS [En_HC], the assay gave 41 nM (6 of 6 replicates). For KIYMMTGFQSRNADSIA / DNSTRGS / QQYHRLPLS [En_HC], the assay gave 43 nM (6 of 6 replicates). The variant KLVYSWQYESRNKNSVA / HASQRCS / QQYHRLPLS [GP_Gibbs] gave 63 nM (5 of 6 replicates). The variant KCSHSVLTSTRNGNSVA / WASTRED / QQYHQLPLS [Ctrl] showed 92 nM (5 of 6 replicates). The variant MIAQGLRGVGRNKNSVA / NAQTRES / QHYHRLPLS [En_HC] showed 250 nM (3 of 6 replicates). With MISQLMNVGQFAINSVA / QATIRNS / QQYDRLPLI [En_Gen] the result was 260 nM (3 of 6 replicates). The variant YVSIDAAEGWNQQSAVA / GVSYKEK / QQYYKLPLS [En_Gibbs] showed 330 nM (3 of 6 replicates).

With KMNMAVQQDLMDEYSVA / DHMTAVT / QQYGRLPLS [En_Gibbs] the result was 520 nM (4 of 6 replicates). With IVSQLMIWGMHVKNSIA / EAQTRVN / QQYDRLPLM [En_Gen] the result was 580 nM (5 of 6 replicates). For TLYGLSNSMSINKDSVA / EMTTRED / QQYDRLPLV [En_Gen], the assay gave 1.4 µM (4 of 6 replicates). The variant KIFGSIPEFEMDDNAIA / MATLRET / QQYQRLPLS [En_Gibbs] showed nd (0 of 6 replicates).

The first 8 entries again:

| CDR-L1 | CDR-L2 | CDR-L3 | group | Kd (apparent) | replicates with signal |
|---|---|---|---|---|---|
| HLADTVMQGSYYRNSVA | QESTRAD | QQYHRLPLS | En_HC | 600 pM | 6/6 |
| KVFPSELGESRNKMSVA | QASTRES | QQYHRLPLS | GP_Gibbs | 770 pM | 6/6 |
| KIGHGLTTESRNRNSVA | QTETRVS | QHYHRLPLS | En_HC | 870 pM | 6/6 |
| KLSMMVEMMQRNPNSVA | SASTRLS | QQYHRLPLS | GP_Gibbs | 910 pM | 6/6 |
| KVSEEVLMGDRNKNSVA | KASTRES | QQYHRLPLS | GP_Gibbs | 970 pM | 6/6 |
| KLTMITGLEKVQKNNVA | EMETREQ | QQYNRLPLS | En_Gen | 1.0 nM | 6/6 |
| KYSFSVLELSRNSNAVA | NASTREE | QDYHRLPLS | GP_Gibbs | 1.2 nM | 6/6 |
| TLVDWIQGGTWAKKNVA | DESTRVN | QQYYRLPLS | En_Gibbs | 1.2 nM | 6/6 |

Source: Li et al. 2023 (doi:10.1038/s41467-023-39022-2), MIT Lincoln Laboratory and A-Alpha Bio; data file from the FLAb repository.